## Experimental water solubility values from OPERA 2.9

Values as listed in the OPERA 2.9 repository of K. Mansouri.

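These are experimental values that the OPERA curators gathered from public databases to train and test their QSAR models. One number stands for a compound and property, with no spread given. Method, purity and exact conditions of the single measurements are not given. Where a salt, mixture or single isomer is drawn, the source does not say that exactly this form was tested. Some entries may be limits or estimates that an upstream database listed as plain numbers.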

Solubility in water is on a log10 molar scale (set defined at 25 °C).

CCc1ccncc1 is reported with water solubility 0 (log10 mol/L). Listed for CC1=C(C(=O)O)CCCC1: water solubility -2.283 (log10 mol/L). For CC1(C)Cc2cccc(O)c2O1 the data give water solubility -2.18 (log10 mol/L). CCCCCN1C(=O)CCC1=O is reported with water solubility -1.105 (log10 mol/L). CC(=O)Nc1cccc(Br)c1 has water solubility -2.73 (log10 mol/L). Listed for O=C1N=C2C(=O)NC(=O)N=C2C(=O)N1: water solubility -4.59 (log10 mol/L). Listed for CCOC(=O)CNC(=O)c1ccco1: water solubility -0.931 (log10 mol/L).

CC(=O)C(N=Nc1ccc(C(=O)Nc2ccc(C(N)=O)cc2)cc1)C(=O)Nc1ccc2[nH]c(=O)[nH]c2c1 (stereo unspecified) is reported with water solubility -6.673 (log10 mol/L). The entry for CCN(CCO)c1ccc(N=Nc2ccc([N+](=O)[O-])cc2)cc1 lists water solubility -6.29 (log10 mol/L). For Nc1nc(=O)[nH]c2nccnc12 the data give water solubility -3.359 (log10 mol/L). The entry for CN(C)S(=O)(=O)c1ccc2c(c1)N(CCCN1CCC(CCO)CC1)c1ccccc1S2 lists water solubility -4.573 (log10 mol/L). Listed for Oc1ccnc2cccnc12: water solubility -2.244 (log10 mol/L). O=C1CCCCCNC(=O)CCCCCNC(=O)CCCCCN1 has water solubility -1.562 (log10 mol/L). Listed for CCOC(=O)CCC(=O)C(CO)(N=C(C)O)C(=O)OCc1ccccc1 (stereo unspecified): water solubility -3.851 (log10 mol/L).

NS(=O)(=O)c1cc2c(s1)C(O)CCS2(=O)=O (stereo unspecified) has water solubility -1.276 (log10 mol/L). Listed for Nc1cccc2cc(S(=O)(=O)O)ccc12: water solubility -2.35 (log10 mol/L). Listed for O[C@@H]1[C@H](O)[C@@H]2OC[C@@H](O2)[C@@H]1O: water solubility -0.415 (log10 mol/L). For Clc1ccc(C(Cn2ccnc2)OCc2csc3c(Cl)cccc23)c(Cl)c1 (stereo unspecified) the data give water solubility -4.837 (log10 mol/L). The entry for CC1COC(C)(C)O1 (stereo unspecified) lists water solubility -0.02 (log10 mol/L). CC(C)(C)S has water solubility -1.788 (log10 mol/L). The entry for N=C(NN)c1ncnc2[nH]cnc12 lists water solubility -2.753 (log10 mol/L).

The entry for CCOC(=O)NCC(C)C lists water solubility -0.768 (log10 mol/L). The entry for CCC(c1ccc(O)cc1)C(CC)c1ccc(O)cc1 (stereo unspecified) lists water solubility -4.43 (log10 mol/L). The entry for CC(=O)c1c2ccccc2cc2ccccc12 lists water solubility -5.35 (log10 mol/L). The entry for CC(=O)c1ccc2c(c1)N(CC(C)N(C)C)c1ccccc1S2 (stereo unspecified) lists water solubility -4.427 (log10 mol/L). CCCSc1nc(N[C@@H]2C[C@H]2c2ccc(F)c(F)c2)c2nnn([C@@H]3C[C@H](OCCO)[C@@H](O)[C@H]3O)c2n1 is reported with water solubility -3.919 (log10 mol/L). For CC[C@H](NC(=O)[C@H](CC)NC(=O)[C@H](CC)NC(=O)[C@H](CC)NC(=O)[C@H](CC)NC(=O)[C@@H](N)CC)C(=O)O the data give water solubility -2.682 (log10 mol/L). For CC(C)CC(C)OCC(O)CO (stereo unspecified) the data give water solubility -1.25 (log10 mol/L).

COc1ccc(C(=O)Nc2ccccc2)cc1N=Nc1c(O)c(C(=O)Nc2cc(Cl)ccc2OC)cc2ccccc12 is reported with water solubility -8.184 (log10 mol/L). For CC(C)(C)C(C)(C)O the data give water solubility -0.72 (log10 mol/L). Nc1nc2ncnc(N)c2nc1N is reported with water solubility -3.345 (log10 mol/L). The entry for C[C@H]1[C@H](NC(=O)/C(=N\OC(C)(C)C(=O)O)c2csc(N)n2)C(=O)N1S(=O)(=O)O lists water solubility -4.006 (log10 mol/L). The entry for Nc1cccc(S(N)(=O)=O)c1 lists water solubility -1.16 (log10 mol/L). Listed for CC(=O)C(N=Nc1cc(Cl)c(-c2cc(Cl)c(N=NC(C(C)=O)C(=O)Nc3ccc(C)cc3C)cc2Cl)cc1Cl)C(=O)Nc1ccc(C)cc1C (stereo unspecified): water solubility -8.463 (log10 mol/L). Listed for NS(=O)(=O)c1cc2c(s1)S(=O)(=O)CCC2: water solubility -2.679 (log10 mol/L).

COc1cc([N+](=O)[O-])ccc1N=Nc1ccc(N(CCO)CCO)cc1 has water solubility -4.699 (log10 mol/L). Cc1nc(C)c(C(=O)NN)cc1C(=O)NN has water solubility -0.395 (log10 mol/L). The entry for CC(C(=O)O)c1ccc(C(=O)c2ccccc2)s1 (stereo unspecified) lists water solubility -3.905 (log10 mol/L). Listed for CO[C@H](OC(C)=O)[C@H](OC(C)=O)[C@@H](OC(C)=O)[C@@H](COC(C)=O)OC(C)=O: water solubility -1.816 (log10 mol/L). The entry for CCCCOC(=O)Nc1ccccc1 lists water solubility -3.429 (log10 mol/L). Listed for O=[N+]([O-])c1ccc([O-])cc1.[Na+]: water solubility -1.06 (log10 mol/L). C[Si]1(C)O[Si](C)(C)O[Si](C)(C)O1 is reported with water solubility -5.143 (log10 mol/L).

For O=C(Nc1ncccn1)c1cnccn1 the data give water solubility -0.304 (log10 mol/L). CC(C)(C)C(=O)OCOC(=O)[C@@H]1N2C(=O)[C@@H](NC(=O)[C@H](N)c3ccccc3)[C@H]2SC1(C)C has water solubility -4.117 (log10 mol/L). Listed for COCCc1ccccc1: water solubility -2.3 (log10 mol/L). Cn1c(=O)c2c([nH]c(=O)n2C)n(C)c1=O has water solubility -1.582 (log10 mol/L). NS(=O)(=O)c1cc2c(cc1Cl)N=C(CSCc1ccccc1)NS2(=O)=O has water solubility -4.525 (log10 mol/L). COC(=O)[C@@H](O)[C@@H](O)C(=O)O has water solubility 0.183 (log10 mol/L).

Excerpt, the final 7 entries:

{"smiles": "C[Si]1(C)O[Si](C)(C)O[Si](C)(C)O1", "water solubility (log10 mol/L)": "-5.143"}
{"smiles": "O=C(Nc1ncccn1)c1cnccn1", "water solubility (log10 mol/L)": "-0.304"}
{"smiles": "CC(C)(C)C(=O)OCOC(=O)[C@@H]1N2C(=O)[C@@H](NC(=O)[C@H](N)c3ccccc3)[C@H]2SC1(C)C", "water solubility (log10 mol/L)": "-4.117"}
{"smiles": "COCCc1ccccc1", "water solubility (log10 mol/L)": "-2.3"}
{"smiles": "Cn1c(=O)c2c([nH]c(=O)n2C)n(C)c1=O", "water solubility (log10 mol/L)": "-1.582"}
{"smiles": "NS(=O)(=O)c1cc2c(cc1Cl)N=C(CSCc1ccccc1)NS2(=O)=O", "water solubility (log10 mol/L)": "-4.525"}
{"smiles": "COC(=O)[C@@H](O)[C@@H](O)C(=O)O", "water solubility (log10 mol/L)": "0.183"}